Source: US10172863B2, “Purine derivatives useful as HSP90 inhibitors” (Sloan-Kettering Institute for Cancer Research, priority 2009, dated 2019)

These compounds were tested on JNPL3 brain Hsp90. Conditions: not given.
Work on `CC(C)NCCCn1c(Sc2cc3c(cc2I)OCO3)nc2c(N)ncnc21` [PU-H71, reference compound] yielded an EC50 of 0.0308 to 0.054 µM.

Same assay, conditions: read-out: EC50; binding to JNPL3 brain Hsp90; JNPL3 brain cell lysate
`CC(C)NCCCn1c(Sc2cc3c(cc2I)OCC3)nc2c(N)ncnc21` [Compound 1A-1, 8-((6-iodo-2,3-dihydrobenzofuran-5-yl)thio)-9-(3-(isopropylamino)propyl)-9H-purin-6-amine] showed an EC50 of 0.133 to 0.346 µM.
With `CC(C)NCCCn1c(Sc2cc3c(cc2I)CCO3)nc2c(N)ncnc21` [Compound 1B-2, 8-((5-iodo-2,3-dihydrobenzofuran-6-yl)thio)-9-(3-(isopropylamino)propyl)-9H-purin-6-amine] the EC50 was 0.008 to 0.014 µM.
For `CC(C)NCCCn1c(Cc2cc3c(cc2I)CCO3)nc2c(N)nc(F)nc21` [Compound 1B-4, 2-fluoro-8-((5-iodo-2,3-dihydrobenzofuran-6-yl)methyl)-9-(3-(isopropylamino)propyl)-9H-purin-6-amine], the EC50 was 0.0333 µM.
Compound `CC(C)NCCCn1c(Sc2cc3c(cc2-c2ccc(C(C)(C)C)cc2)OCO3)nc2c(N)ncnc21` [Compound 4A-2, 8-(6-(4-tert-butylphenyl)benzo[d][1,3]dioxol-5-ylthio)-9-(3-(isopropylamino)propyl)-9H-purin-6-amine] has an EC50 of 2.67 µM.
Work on `CC(C)NCCCn1c(Sc2cc3c(cc2-c2cc(C(F)(F)F)cc(C(F)(F)F)c2)OCO3)nc2c(N)ncnc21` [Compound 4A-3, 8-(6-(3,5-bis(trifluoromethyl)phenyl)benzo[d][1,3]dioxol-5-ylthio)-9-(3-(isopropylamino)propyl)-9H-purin-6-amine] yielded an EC50 greater than 100 µM.
Compound `NCCCCCCNCCCn1c(Sc2cc3c(cc2-c2cc(C(F)(F)F)cc(C(F)(F)F)c2)OCO3)nc2c(N)ncnc21` [Compound 4A-4, N1-(3-(6-amino-8-(6-(3,5-bis(trifluoromethyl)phenyl)benzo[d][1,3]dioxol-5-ylthio)-9H-purin-9-yl)propyl)hexane-1,6-diamine] has an EC50 of 8.29 µM.
Work on `COc1ccc(-c2cc3c(cc2Sc2nc4c(N)ncnc4n2CCCNC(C)C)OCO3)cc1` [Compound 4A-6, 9-(3-(isopropylamino)propyl)-8-(6-(4-methoxyphenyl)benzo[d][1,3]dioxol-5-ylthio)-9H-purin-6-amine] yielded an EC50 of 0.438 µM.
`CC(C)NCCCn1c(Sc2cc3c(cc2-c2ccc(C=O)cc2)OCO3)nc2c(N)ncnc21` [Compound 4A-8, 4-(6-(6-amino-9-(3-(isopropylamino)propyl)-9H-purin-8-ylthio)benzo[d][1,3]dioxol-5-yl)benzaldehyde] gave an EC50 of 2.33 µM.
`C#Cc1cc2c(cc1Sc1nc3c(N)ncnc3n1CCCNC(C)C)OCO2` [Compound 4B-1, 8-(6-ethynylbenzo[d][1,3]dioxol-5-ylthio)-9-(3-(isopropylamino)propyl)-9H-purin-6-amine] showed an EC50 of 0.0191 µM.
In the case of `CC(C)NCCCn1c(Sc2cc3c(cc2C#CC(C)(C)C)OCO3)nc2c(N)ncnc21` [Compound 4B-2, 8-(6-(3,3-dimethylbut-1-ynyl)benzo[d][1,3]dioxol-5-ylthio)-9-(3-(isopropylamino)propyl)-9H-purin-6-amine], the EC50 is reported as 0.403 µM.
In the case of `CC(C)NCCCn1c(Sc2cc3c(cc2C#Cc2ccccc2)OCO3)nc2c(N)ncnc21` [Compound 4B-3, 9-(3-(isopropylamino)propyl)-8-(6-(phenylethynyl)benzo[d][1,3]dioxol-5-ylthio)-9H-purin-6-amine], the EC50 is reported as 0.731 µM.
Compound `CC(C)NCCCn1c(Sc2cc3c(cc2-c2ccco2)OCO3)nc2c(N)ncnc21` [Compound 4C-1, 8-(6-(furan-2-yl)benzo[d][1,3]dioxol-5-ylthio)-9-(3-(isopropylamino)propyl)-9H-purin-6-amine] has an EC50 of 0.011 µM.
In the case of `CC(C)NCCCn1c(Sc2cc3c(cc2-c2ccoc2)OCO3)nc2c(N)ncnc21` [Compound 4C-2, 8-(6-(furan-3-yl)benzo[d][1,3]dioxol-5-ylthio)-9-(3-(isopropylamino)propyl)-9H-purin-6-amine], the EC50 is reported as 0.048 µM.
`CC(C)NCCCn1c(Sc2cc3c(cc2-c2ccc(C=O)o2)OCO3)nc2c(N)ncnc21` [Compound 4C-6, 5-(6-(6-amino-9-(3-(isopropylamino)propyl)-9H-purin-8-ylthio)benzo[d][1,3]dioxol-5-yl)furan-2-carbaldehyde] showed an EC50 of 0.056 µM.
`Cc1ccc(-c2cc3c(cc2Sc2nc4c(N)ncnc4n2CCCNC(C)C)OCO3)o1` [Compound 4C-8, 9-(3-(isopropylamino)propyl)-8-(6-(5-methylfuran-2-yl)benzo[d][1,3]dioxol-5-ylthio)-9H-purin-6-amine] was tested, and the EC50 was 0.023 µM.
`CC(C)NCCCn1c(Sc2cc3c(cc2-c2cnoc2)OCO3)nc2c(N)ncnc21` [Compound 4C-10, 9-(3-(isopropylamino)propyl)-8-(6-(isoxazol-4-yl)benzo[d][1,3]dioxol-5-ylthio)-9H-purin-6-amine] showed an EC50 greater than 0.3 µM.
Work on `CC(C)NCCCn1c(Sc2cc3c(cc2-c2cccs2)OCO3)nc2c(N)ncnc21` [Compound 4D-1, 9-(3-(isopropylamino)propyl)-8-(6-(thiophen-2-yl)benzo[d][1,3]dioxol-5-ylthio)-9H-purin-6-amine] yielded an EC50 of 0.043 µM.
`CC(C)NCCCn1c(Cc2cc3c(cc2C#N)OCO3)nc2c(N)nc(F)nc21` [Compound 4E-1, 6-((6-amino-2-fluoro-9-(3-(isopropylamino)propyl)-9H-purin-8-yl)methyl)benzo[d][1,3]dioxole-5-carbonitrile] gave an EC50 of 0.219 µM.
Work on `CC(C)NCCCn1c(Sc2cc3c(cc2CC#N)OCO3)nc2c(N)ncnc21` [Compound 4E-3, 2-(6-((6-amino-9-(3-(isopropylamino)propyl)-9H-purin-8-yl)thio)benzo[d][1,3]dioxol-5-yl)acetonitrile] yielded an EC50 of 0.542 µM.
Work on `CC(C)NCCCn1c(Sc2cc3c(cc2-c2ccncc2)OCO3)nc2c(N)ncnc21` [Compound 4F-1, 9-(3-(isopropylamino)propyl)-8-(6-(pyridin-4-yl)benzo[d][1,3]dioxol-5-ylthio)-9H-purin-6-amine] yielded an EC50 of 4.12 µM.
`CC(C)NCCCn1c(Sc2cc3c(cc2-c2cn[nH]c2)OCO3)nc2c(N)ncnc21` [Compound 4G-1, 8-(6-(1H-pyrazol-4-yl)benzo[d][1,3]dioxol-5-ylthio)-9-(3-(isopropylamino)propyl)-9H-purin-6-amine] gave an EC50 of 0.374 µM.
In the case of `CC(C)NCCCn1c(Sc2cc3c(cc2-c2ccnn2C)OCO3)nc2c(N)ncnc21` [Compound 4G-4, 9-(3-(isopropylamino)propyl)-8-(6-(1-methyl-1H-pyrazol-5-yl)benzo[d][1,3]dioxol-5-ylthio)-9H-purin-6-amine], the EC50 is reported as greater than 0.3 µM.
With `CC(C)NCCCn1c(Sc2cc3c(cc2-c2cc[nH]n2)OCO3)nc2c(N)ncnc21` [Compound 4G-6, 8-(6-(1H-pyrazol-3-yl)benzo[d][1,3]dioxol-5-ylthio)-9-(3-(isopropylamino)propyl)-9H-purin-6-amine] the EC50 was 0.004 µM.
`CC(C)NCCCn1c(Sc2cc3c(cc2-c2ccc[nH]2)OCO3)nc2c(N)ncnc21` [Compound 4H-1, 8-(6-(1H-pyrrol-2-yl)benzo[d][1,3]dioxol-5-ylthio)-9-(3-(isopropylamino)propyl)-9H-purin-6-amine] was tested, and the EC50 was 0.309 µM.
`CC(C)NCCCn1c(Sc2cc3c(cc2-c2cc[nH]c2)OCO3)nc2c(N)ncnc21` [Compound 4H-3, 8-(6-(1H-pyrrol-3-yl)benzo[d][1,3]dioxol-5-ylthio)-9-(3-(isopropylamino)propyl)-9H-purin-6-amine] was tested, and the EC50 was 0.057 µM.
